The nature of this data set: Lipophilicity, log P of the compound. To be noted: octanol/water.

As a reminder, the logP is a log measure of how a compound divides between an organic and an aqueous phase. The molecule `O=C(N/N=C/c1cccc([N+](=O)[O-])c1)c1cc([N+](=O)[O-])cc([N+](=O)[O-])c1` came in with a logP of 3.29.
